Reference: patent US10464907B2, “Compound having HSP90 inhibitory activity or pharmaceutically acceptable salt thereof, and medical use thereof” (priority 2016, dated 2019)

Target: HSP90α (Homo sapiens (Human), UniProt P07900)
Experiment: Fluorescence polarization assay, binding ability to HSP90, benzamide compounds
Experimental: 1 M dithiothreitol (DTT), 10 mg/m: BGG (bovine gamma globulin) were added to hexafluorobenzene (HFB) buffer (20 mM HEPES pH 7.3, 50 mM KCl, 5 mM MgCl2, 20 mM Na2MoO4, 0.01% NP4O, 3rd distilled water) and mixed. Then, 100 nM […] (GA)-FITC (Fluorescein isothiocyanate) was added and reacted at room temperature for 10 minutes. Each 100 μL of the mixture was dispensed into the control wells of a 96-well plate, 2 μL of HSP90α was added to the remaining mixture, and each 100 μL of the other wells was dispensed. […] The binding ability of the compound to HSP90 was expressed as mP (millipolarization unit=1000 mP unit).

With `O=C(NCc1ccccc1)c1cc(Cl)c(O)cc1O` [Compound 14a, N-Benzyl-5-chloro-2,4-dihydroxybenzamide] the IC50 was 6.68 µM.

For `CC(C)c1cc(C(=O)N(C)Cc2ccccc2)c(O)cc1O` [Compound 21g, N-benzyl-2,4-dihydroxy-5-isopropyl-N-methylbenzamide], the IC50 was 0.033 µM.
